# Test results published in US20230054379A1, “COMPOSITION AND METHOD OF TREATMENT TO SIMU[…] THE […] EFFICACY OF OPIOIDS AND REDUCE THEIR ADDICTIVE POWER” (Centro de Investigacion Y Desarrollo de Medicamentos (CIDEM), priority 2020, published 2023).
# Experiments:
# [1] = Mechanical allodynia dose-response in CCI rats (von Frey filaments, % MPE); type: in vivo, rat; settings: morphine 5 mg/kg s.c.; first administration, 7 days post-CCI
# [2] = Thermal hypernociception in CCI rats (Hargreaves test, % MPE); type: in vivo, rat; settings: morphine 5 mg/kg s.c.; first administration, 7 days post-CCI
smiles,measurement,setting,value
"CN1CC[C@]23c4c5ccc(O)c4O[C@H]2[C@@H](O)C=C[C@H]3[C@H]1C5 [morphine, reference compound]","% MPE, mechanical allodynia",[1],75.30±16.2%
same,"% MPE, thermal hypernociception",[2],75.32±15.9%
